{"source": "patent US20190111158A1", "about": "“INJECTION COMPOSITION FOR LABELING LESION” (NATIONAL CANCER CENTER, priority 2016, published 2019)", "key": {"[1]": {"experiment": "bright-field image of MAA particle distribution with/without HA", "assay_type": "physicochemical", "conditions": "6.5 μM ICG, 2, 4 and 8 mg/mL MAA; ICG-MAA no HA, ICG-MAA-HA 0.5% HA (w/v)", "description": "An MAA particle distribution was visualized using an optical microscope with a hemocytometer. Each square represents a size of 0.05 mm^2. […] The concentrations of MAA are as follows: FIGS. 4-1 and 4-4: 2 mg/mL; FIGS. 4-2 and 4-5: 4 mg/mL; and FIGS. 4-3 and 4-6: 8 mg/mL."}, "[2]": {"experiment": "near-infrared fluorescence signal intensity of ICG-MAA complexes at various ICG/MAA mixing ratios", "assay_type": "physicochemical", "conditions": "for near-infrared fluorescence signal intensity: MAA 11.5 mg/mL"}, "[3]": {"experiment": "change in transmittance at 550 nm according to precipitation of ICG-MAA-HA", "assay_type": "physicochemical", "conditions": "HA 0.0 %, MAA 2 mg/mL", "description": "A change in optical density over time was measured for the injection composition prepared in Example 1. For reference, a change in optical density was measured for an injection composition including 2 mg/mL of MAA.\nIn addition, transmittance was obtained by measuring the transmittance of visible light using a UV spectrometer (TECAN. Infinite M200PRO).\nMore specifically, when transmittance was measured at the one quarter point of the height of a transparent container having a size of 1×1×3 cm^3, using a UV spectrometer, in a state in which the injection composition was loaded in the container, transmittance at 550 nm was measured.\nIn this case, T1 represents transmittance (%) at 550 nm when measured at the one quarter point of the height of a transparent container having a size of 1×1×3 cm^3 in a state in which the prepared injection composition is loaded in the transparent container, and T2 represents transmittance (%) at 550 nm when measured at the one quarter point of the height of a transparent container having a size of 1×1×3 cm^3 after being allowed to stand for 120 minutes in a state in which the prepared injection composition is loaded in the transparent container."}, "[4]": {"experiment": "density of ICG-MAA complex (density of distilled water including the complex, linear regression)", "assay_type": "physicochemical", "conditions": "for Density of distilled water including the ICG-MAA complex: room temperature", "description": "The densities of the ICG-MAA complexes were measured.\nBecause the ICG-MAA complexes were present in the form actually used in an aqueous solution phase, it was difficult to directly measure the densities of the complexes without causing damage to the forms of biological materials, and the like. Therefore, the densities of the ICG-MAA complexes were measured indirectly with reference to a change in density according to concentration.\nThe density was measured using the prepared ICG-MAA complex including MMA at a concentration of 2 mg/mL and 6.5 μM ICG, and the ICG-MAA densities were measured using the ICG-MAA complexes at concentrations of 20 mg/mL to 200 mg/mL (2 to 20% (w/v), as follows.\nMore specifically, 20 mL of distilled water was poured into a transparent container at room temperature, and the aforementioned ICG-MAA complex was added thereto to measure a varying density of the distilled water including the ICG-MAA complex. In particular, the varying density according to the concentration of the ICG-MAA complex was measured.\nReferring to Table 2, a linear regression equation was obtained through linear regression analysis, and the density when it reached 100% was measured by extrapolation (0.2757*100+1.0064=1.2821)."}, "[5]": {"experiment": "fluorescence value of the ICG-MAA complex when injected", "assay_type": "in vivo", "description": "Meanwhile, because the concentrations of MAA and ICG were varied due to in vivo diffusion when MAA and ICG were injected in vivo, it was impossible to determine the exact concentrations of MAA and ICG at the time of injection. However, it was confirmed through experiments that the complexes had the highest fluorescence value when 6.5 μM ICG with respect to 2 mg/mL MAA was injected."}, "[6]": {"experiment": "injection into chicken breast, NIRF imaging", "conditions": "ICG-MAA-HA 0.5% HA, ICG-MAA no HA", "description": "(§1) Also, a difference in tissue strength was determined using a chicken breast having typical tissue strength and a chicken gizzard having compact tissue strength. 50 μL of each of ICG-MAA-HA and ICG-MAA was slowly injected 5 times into the chicken breast and chicken gizzard to a depth of 5 mm. An NIRF image was obtained by emitting light from 17 2 mA NIR LEDs having a peak wavelength of 740 nm. The image was photographed and visualized by AVT UniCam viewer software (Allied Vision Technologies) according to the following settings of a camera: Exposure time: 195 ms; Gain: 170; Target grayscale value: 125; and Brightness: 16. It took approximately 2 to 3 minutes to prepare and inject the injections. […] When it was difficult to inject the injection solutions, the syringe was shaken, and the injection solutions were again injected within a short time.\nA region into which the ICG-MAA-HA was injected is indicated by a white circle on the bright-field image. The NIRF image was obtained by emitting light from the 17 2 mA NIR LEDs having a peak wavelength of 740 nm. The image was photographed and visualized by AVT UniCam viewer software (Allied Vision Technologies) according to the following settings of a camera: Exposure time: 195 ms; Gain: 170; Target grayscale value: 125; and Brightness: 16."}, "[7]": {"experiment": "injection into chicken gizzard, NIRF imaging", "conditions": "ICG-MAA-HA 0.5% HA, ICG-MAA no HA", "description": "as §1"}, "[8]": {"experiment": "change in syringe pressure (gliding force) according to precipitation of ICG-MAA-HA-2", "assay_type": "physicochemical", "description": "Generally, a pressure applied to the syringe with a 26G needle according to the concentration of hyaluronic acid increased from approximately 20 gf (0.1% HA) to 70 gf (1.0% HA). The pressure applied to the syringe increased according to an injection composition other than hyaluronic acid in the injection. In one example, a force of approximately 15 gf was further applied when MAA was present at a concentration of 8 mg/mL.\nTherefore, in Experimental Example 3-3, the pressures applied to the syringe when the injection composition to which hyaluronic acid was added was injected immediately after addition of hyaluronic acid and after the injection composition was allowed to stand for 120 minutes to allow the composition to settle were measured, and are listed in the following table.\nFor reference, in Table 6, (A) lists the pressures when the injection composition was injected immediately, and (B) lists the pressures at the start of injection after the injection composition was allowed to stand for 120 minutes. Also, (C) lists the pressures (forces exerted on a finger, i.e., gliding forces) at an intermediate point of injection after the injection composition was allowed to stand for 120 minutes."}, "[9]": {"experiment": "suspensibility maintenance time of ICG-MAA-HA injection solution according to HA concentration", "assay_type": "physicochemical", "conditions": "HA solvent 0% (simple water for injection), MAA 2 mg/mL", "description": "To evaluate the usefulness of ICG-MAA-HA as an injection composition, a suspensibility maintenance time of ICG-MAA-HA according to the concentration of HA was measured.\nMore specifically, the suspensibility maintenance time after preparation of the ICG-MAA-HA injection solution was measured, and the suspensibility maintenance time was measured according to an increasing concentration of HA. Here, the suspensibility defines a suspensibility maintenance time as a reference point of time when a settling region and a floating region are separated based on 20% transmittance of light with 500 nm.\nMore specifically, as the images of the ICG-MAA-HA injection thus prepared photographed after 30 minutes, FIG. 3(A) is an image of MAA to which 0.1% HA is added, and FIG. 3(B) is an image of MAA to which 0.5% HA is added."}, "[10]": {"experiment": "constant concentration effect: sequential 100 μL injections into tubes, fluorescence signal", "assay_type": "physicochemical", "conditions": "MAA 2 mg/mL, 1.5 μM ICG; ICG-MAA no HA, ICG-MAA-HA 0.1% (w/v) HA"}, "[11]": {"experiment": "change in syringe pressure according to precipitation of ICG-MAA-HA-1 (26G needle)", "assay_type": "physicochemical", "conditions": "HA 0 %", "description": "In Example 3-3, the pressure (A) applied to the syringe when the injection composition to which hyaluronic acid was added was injected immediately after the addition of HA and the pressure (B) applied to the syringe after the injection composition was allowed to stand for 120 minutes so that the composition settled were measured, and are listed in the following table.\nIn this case, the syringe equipped with a 26G needle was used to measure a gliding force of the syringe.\nIn addition, the unit of the gliding force is gf representing gravitational force (1 g=0.0098 N)."}, "[12]": {"conditions": "one quarter point of container height"}}, "note": "Several values for one entry are separate records, joined by “and”; a condition that tells them apart may be missing. Equal entries are not always repeated. Entries after “also recorded” stand apart in the source; their conditions may differ.", "data": [{"substance": "ICG-MAA: complex in which indocyanine green is bound to macroaggregated albumin; injection composition without hyaluronic acid", "values": [{"measurement": "MAA particle distribution in bright-field image (settling)", "setting": "[1]", "result": "all the MAA particles had settled"}, {"measurement": "ICG concentration with the highest value of near-infrared fluorescence signal intensity", "setting": "[2]; 11.5 mg/mL of MAA", "result": 6.5, "unit": "µM"}, {"measurement": "near-infrared fluorescence signal intensity", "setting": "[2]; ICG 3.9 (μN)", "result": 931}, {"measurement": "near-infrared fluorescence signal intensity", "setting": "[2]; ICG 6.5 (μN)", "result": 979}, {"measurement": "near-infrared fluorescence signal intensity", "setting": "[2]; ICG 9.0 (μN)", "result": 942}, {"measurement": "near-infrared fluorescence signal intensity", "setting": "[2]; ICG 12.9 (μN)", "result": 915}, {"measurement": "near-infrared fluorescence signal intensity", "setting": "[2]; ICG 25.8 (μN)", "result": 563}, {"measurement": "near-infrared fluorescence signal intensity", "setting": "[2]; ICG 38.7 (μN)", "result": 366}, {"measurement": "near-infrared fluorescence signal intensity", "setting": "[2]; ICG 64.5 (μN)", "result": 244}, {"measurement": "near-infrared fluorescence signal intensity", "setting": "[2]; ICG 77.4 (μN)", "result": 182}, {"measurement": "near-infrared fluorescence signal intensity", "setting": "[2]; ICG 103 (μN)", "result": 94}, {"measurement": "near-infrared fluorescence signal intensity", "setting": "[2]; ICG 258 (μN)", "result": 60}, {"measurement": "near-infrared fluorescence signal intensity", "setting": "[2]; ICG 516 (μN)", "result": 20}, {"measurement": "near-infrared fluorescence signal intensity", "setting": "[2]; ICG 774 (μN)", "result": 9}, {"measurement": "near-infrared fluorescence signal intensity", "setting": "[2]; ICG 1032 (μN)", "result": 4}, {"measurement": "|T2 − T1|", "setting": "[3]", "result": 10.12, "unit": "%"}, {"measurement": "T1: transmittance at 550 nm", "setting": "[3]; [12]", "result": 77.76, "unit": "%"}, {"measurement": "T2: transmittance at 550 nm after standing for 120 minutes", "setting": "[3]; [12]", "result": 87.88, "unit": "%"}, {"measurement": "Density of distilled water including the ICG-MAA complex", "setting": "[4]; ICG-MAA complex 2 % (w/v)", "result": 1.0118, "unit": "g/mL"}, {"measurement": "Density of distilled water including the ICG-MAA complex", "setting": "[4]; ICG-MAA complex 4 % (w/v)", "result": 1.0177, "unit": "g/mL"}, {"measurement": "Density of distilled water including the ICG-MAA complex", "setting": "[4]; ICG-MAA complex 6 % (w/v)", "result": 1.0228, "unit": "g/mL"}, {"measurement": "Density of distilled water including the ICG-MAA complex", "setting": "[4]; ICG-MAA complex 8 % (w/v)", "result": 1.0283, "unit": "g/mL"}, {"measurement": "Density of distilled water including the ICG-MAA complex", "setting": "[4]; ICG-MAA complex 10 % (w/v)", "result": 1.0338, "unit": "g/mL"}, {"measurement": "Density of distilled water including the ICG-MAA complex", "setting": "[4]; ICG-MAA complex 12 % (w/v)", "result": 1.0395, "unit": "g/mL"}, {"measurement": "Density of distilled water including the ICG-MAA complex", "setting": "[4]; ICG-MAA complex 20 % (w/v)", "result": 1.0616, "unit": "g/mL"}, {"measurement": "settling of the complex dissolved in distilled water", "setting": "[4]; checked after 20 minutes", "result": "a white suspension had settled on the bottom of the container"}, {"measurement": "density of the ICG-MAA complex", "setting": "[4]; extrapolation of the linear regression equation to 100%", "result": 1.2821, "unit": "g/mL"}, {"measurement": "ICG concentration with the highest fluorescence value when injected", "setting": "[5]; with respect to 2 mg/mL MAA", "result": 6.5, "unit": "µM"}, {"measurement": "ICG concentration with the highest fluorescence value when injected", "setting": "[5]; with respect to 2 to 4 mg/mL MAA", "result": 6.5, "unit": "µM"}, {"measurement": "distribution of the labels in NIRF images", "setting": "[6]", "result": "the labels were properly distributed; also recorded: a small amount of the labels were injected"}, {"measurement": "distribution of the labels in NIRF images", "setting": "[7]", "result": "the labels were not properly distributed"}, {"measurement": "A: pressure when the injection composition was injected immediately", "setting": "[8]; HA 0 %", "result": 115, "unit": "gf"}, {"measurement": "C: pressure (gliding force) at an intermediate point of injection after standing for 120 minutes", "setting": "[8]; HA 0 %", "result": "120 gf and 110 gf"}, {"measurement": "Suspensibility maintenance time", "setting": "[9]", "result": "Within 10 minutes"}, {"measurement": "injection of the predetermined amount of ICG-MAA (fluorescence intensities of sequential 100 μL injections)", "setting": "[10]", "result": "the predetermined amount of ICG-MAA was not injected"}, {"measurement": "A: pressure applied to the syringe when injected immediately after the addition of HA", "setting": "[11]", "result": 91, "unit": "gf"}, {"measurement": "B − A", "setting": "[11]", "result": 309, "unit": "gf"}, {"measurement": "B: pressure applied to the syringe after standing for 120 minutes", "setting": "[11]", "result": 400, "unit": "gf"}]}, {"substance": "MAA: proteinaceous particle of 10 to 50 μm prepared by heating human serum albumin so that it coagulates", "values": [{"measurement": "force further applied to the syringe", "setting": "[8]; MAA 8 mg/mL", "result": "approximately 15 gf"}]}]}
